Assay results from patent US7517517B2 (Janssen Pharmaceutica N.V., priority 2002, dated 2009).

Chains of the proteins cited; added tags and fusions are not shown. Residues count along the entry.
UniProt P23385, 19-1199: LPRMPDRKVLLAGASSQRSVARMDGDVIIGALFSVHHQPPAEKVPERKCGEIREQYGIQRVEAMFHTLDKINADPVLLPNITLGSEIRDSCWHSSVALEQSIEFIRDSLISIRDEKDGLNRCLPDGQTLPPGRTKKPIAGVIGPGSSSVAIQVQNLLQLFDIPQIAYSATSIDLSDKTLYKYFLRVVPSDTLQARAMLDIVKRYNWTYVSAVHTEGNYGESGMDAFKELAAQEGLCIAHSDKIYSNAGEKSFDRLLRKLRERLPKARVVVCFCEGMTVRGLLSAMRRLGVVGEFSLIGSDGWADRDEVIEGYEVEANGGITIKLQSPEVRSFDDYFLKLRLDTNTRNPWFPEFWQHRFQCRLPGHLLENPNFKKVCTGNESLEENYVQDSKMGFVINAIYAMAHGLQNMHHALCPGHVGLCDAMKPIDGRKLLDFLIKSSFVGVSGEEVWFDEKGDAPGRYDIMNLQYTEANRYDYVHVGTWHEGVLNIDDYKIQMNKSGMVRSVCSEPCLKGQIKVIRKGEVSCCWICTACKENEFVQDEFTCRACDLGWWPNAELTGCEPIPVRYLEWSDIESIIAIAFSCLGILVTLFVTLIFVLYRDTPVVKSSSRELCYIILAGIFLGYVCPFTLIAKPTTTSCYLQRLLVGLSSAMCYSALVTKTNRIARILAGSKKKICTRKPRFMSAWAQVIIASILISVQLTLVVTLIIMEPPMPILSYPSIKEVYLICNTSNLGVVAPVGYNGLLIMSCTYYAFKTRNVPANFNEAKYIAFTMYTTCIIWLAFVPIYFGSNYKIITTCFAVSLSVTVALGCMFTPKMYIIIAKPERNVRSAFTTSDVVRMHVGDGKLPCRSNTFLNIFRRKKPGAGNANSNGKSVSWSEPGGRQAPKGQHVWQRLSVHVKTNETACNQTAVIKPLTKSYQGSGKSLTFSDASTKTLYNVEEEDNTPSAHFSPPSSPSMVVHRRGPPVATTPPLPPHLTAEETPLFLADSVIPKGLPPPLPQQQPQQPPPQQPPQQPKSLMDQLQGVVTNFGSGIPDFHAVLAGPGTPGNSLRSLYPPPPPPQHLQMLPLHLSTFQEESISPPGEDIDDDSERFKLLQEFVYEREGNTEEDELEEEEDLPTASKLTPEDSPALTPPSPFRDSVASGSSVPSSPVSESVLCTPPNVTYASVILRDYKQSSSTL

Tests used:
[1] = biological target: T1, cloned rat mGlu1 receptor (Rattus norvegicus, UniProt P23385); test: Signal transduction at the cloned rat mGlu1 receptor in CHO cells (glutamate-induced Ca2+ rise, FLIPR); type: cell-based
T1 construct: expressed in transfected cells; host or cells: CHO cells

rat mGlu1a receptor [2] = biological target: T2, rat mGlu1a receptor (Rattus norvegicus, UniProt P23385); test: [3H]Compound A binding to rat mGlu1a receptor CHO-dhfr− membranes (saturation, kinetics, inhibition)
T2 construct: host or cells: CHO-dhfr- cells

rat mGlu1a receptor [3] = biological target: T2, rat mGlu1a receptor; test: [3H]quisqualate binding to rat mGlu1a receptor CHO-dhfr− membranes (saturation, inhibition)
[4] = inhibition of glutamate-induced intracellular Ca2+ rise, CHO cells expressing mGlu1 receptor, compounds with pIC50 between 7 and 8
[5] = 50% inhibition of the glutamate-induced intracellular Ca2+ rise, CHO cells, FLIPR

IC50 [1, 4]: 0.0389 µM
Compound: CCCc1ccc2cc(C(=O)[C@H]3CC[C@H](OC)CC3)ccc2n1 [Compound 229]

IC50 [1, 5]: 0.00525 µM
Compound: CCCc1ccc2cc(C(=O)C3CCC(OC)CC3)ccc2n1 (stereo not drawn) [Compound 114]

IC50 [1, 5]: 0.00417 µM
Compound: CCc1cc2cc(C(=O)C3CCC(OC)CC3)ccc2nc1F (stereo not drawn) [Compound 19]

IC50 [1, 4]: 0.0186 µM
Compound: CCc1cc2cc(C(=O)[C@H]3CC[C@@H](O)CC3)ccc2nc1C [Compound 182]

Second part, the compound before the results:

Compound: N[C@@]1(C(=O)O)CC[C@@H](C(=O)O)C1 [1S,3R-ACPD, reference compound]
Ki (rat mGlu1a receptor [2]; 2.5 nM [3H]Compound A, 30 min at 4° C., mean ± SD of 3–4 experiments, read-out: Ki (nM), inhibition of [3H]Compound A-binding): > 1e+06 nM
Ki (rat mGlu1a receptor [3]; inhibition of [3H]quisqualate binding, rat mGlu1a receptor CHO-dhfr− membranes, mean ± SD of 2 experiments, read-out: Ki): 1.92 ± 0.2 µM

Compound: COC1CCC(C(=O)c2ccc3nc4c(cc3c2)CCCN4C)CC1 (stereo not drawn) [Compound 208]
IC50 [1, 5]: 0.00804 µM

Compound: N[C@@H](Cn1oc(=O)[nH]c1=O)C(=O)O [quisqualate, reference compound]
Ki (rat mGlu1a receptor [2]): > 1e+06 nM
Ki (rat mGlu1a receptor [3]): 0.03 µM

Each block holds one compound with its values, some of them ahead of it.
